Results published in patent US7071177B2, “P-(sulfonyl) aryl and heteroarylamines as anti-inflammatory agents” (Syntex (U.S.A.) LLC, priority 2000, dated 2006).

Protein sequences, listed by entry. Tags and fused reporters are not part of them. Residues count along the entry.
UniProt P35354, 18-604 limits assumed: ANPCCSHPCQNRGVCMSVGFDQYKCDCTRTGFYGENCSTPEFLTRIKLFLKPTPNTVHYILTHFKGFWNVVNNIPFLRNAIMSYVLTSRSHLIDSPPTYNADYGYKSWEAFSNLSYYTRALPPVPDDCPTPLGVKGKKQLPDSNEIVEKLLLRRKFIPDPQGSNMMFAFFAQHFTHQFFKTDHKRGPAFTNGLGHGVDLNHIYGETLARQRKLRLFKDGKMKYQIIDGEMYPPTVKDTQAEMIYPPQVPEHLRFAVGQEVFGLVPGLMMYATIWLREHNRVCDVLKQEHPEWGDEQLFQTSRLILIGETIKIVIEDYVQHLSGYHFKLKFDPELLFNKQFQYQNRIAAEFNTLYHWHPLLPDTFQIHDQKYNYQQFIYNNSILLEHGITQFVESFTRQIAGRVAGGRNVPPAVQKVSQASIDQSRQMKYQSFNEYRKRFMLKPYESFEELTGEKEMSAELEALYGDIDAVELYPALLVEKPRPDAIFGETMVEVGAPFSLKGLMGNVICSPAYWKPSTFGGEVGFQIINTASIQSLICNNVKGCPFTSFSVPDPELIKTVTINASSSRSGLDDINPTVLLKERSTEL
UniProt P23219, 24-599 limits assumed: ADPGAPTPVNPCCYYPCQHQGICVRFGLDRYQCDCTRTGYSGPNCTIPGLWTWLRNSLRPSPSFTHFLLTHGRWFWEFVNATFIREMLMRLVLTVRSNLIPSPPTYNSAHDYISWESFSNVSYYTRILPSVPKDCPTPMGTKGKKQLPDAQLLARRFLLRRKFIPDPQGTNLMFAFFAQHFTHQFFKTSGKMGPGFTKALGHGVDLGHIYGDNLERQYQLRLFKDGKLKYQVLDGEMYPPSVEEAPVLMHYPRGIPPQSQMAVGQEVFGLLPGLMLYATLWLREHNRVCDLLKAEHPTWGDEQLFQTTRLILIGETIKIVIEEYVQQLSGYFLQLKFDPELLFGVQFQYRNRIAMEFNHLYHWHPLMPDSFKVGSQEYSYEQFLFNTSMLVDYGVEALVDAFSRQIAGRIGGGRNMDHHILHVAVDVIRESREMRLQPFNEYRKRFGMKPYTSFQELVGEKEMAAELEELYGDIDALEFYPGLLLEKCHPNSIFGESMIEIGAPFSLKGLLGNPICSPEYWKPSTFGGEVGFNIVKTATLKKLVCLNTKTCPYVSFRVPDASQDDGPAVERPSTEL

Assays:
COX II = COX II (Homo sapiens, UniProt P35354); test: Inhibition of COX II in vitro (radiometric, partially purified enzyme); details: read-out: COX II IC50, 10 min preincubation, 20 micromolar [14C]arachidonic acid
Experimental: (§1) The COX I and COX II inhibitory activity of compounds of this invention in vitro was determined using partially purified COX I and COX II enzymes, prepared as described in J. Barnett et. al., Biochim. Biophys. Acta, 1209, 130–139 (1994).
(§2) COX I and COX II samples were diluted with Tris-HCl buffer (50 mM Tris-HCl, pH 7.9) containing 2 mM EDTA and 10% glycerol and reconstituted by incubating first with 2 mM phenol for 5 minutes and then with 1 micromolar hematin for an additional 5 minutes. 125 μl of the reconstituted COX I or COX II enzyme were preincubated for 10 minutes at room temperature in a shaking water bath with the compounds of the invention dissolved in 2–15 μl of DMSO or the carrier vehicles (control samples). The enzyme reaction was initiated by adding 25 μl of 1-[14C]arachidonic acid (80,000–100,000 cpm/tube; 20 micromolar final concentration) and the reaction was allowed to continue for an additional 45 seconds. The reaction was terminated by adding 100 μl of 2N HCl and 750 μl water. An aliquot (950 μl) of the reaction mixture was loaded onto a 1 ml C18 Sep-Pak column (J. T. Baker, Phillipsburg, N.J.) which had been previously washed with 2–3 ml methanol and equilibrated with 5–6 ml distilled water. Oxygenated products were quantitatively eluted with 3 ml of acetonitrile/water/acetic acid (50:50:0.1, v/v) and the radioactivity in the eluate determined in a scintillation counter.

COX I = COX I (Homo sapiens, UniProt P23219); test: Inhibition of COX I in vitro (radiometric, partially purified enzyme); details: read-out: COX I IC50, 10 min preincubation, 20 micromolar [14C]arachidonic acid
Experimental: as §1, §2

SMILES | IC50 (COX II) | IC50 (COX I)
CCCCN(Cc1ccccc1Cl)c1ccc(S(C)(=O)=O)cc1 | < 200 nM | > 20000 nM
CCCCN(Cc1ccc(Cl)cc1)c1ccc(S(C)(=O)=O)cc1 | < 200 nM | > 40000 nM
CCCCN(Cc1ccccc1F)c1ccc(S(C)(=O)=O)cc1 | < 200 nM | > 15000 nM
CCCCN(Cc1ccc(F)cc1F)c1ccc(S(C)(=O)=O)cc1 | < 200 nM | > 40000 nM
CCCCN(Cc1ccccc1OC)c1ccc(S(C)(=O)=O)cc1 | < 200 nM | > 40000 nM
CCCCN(Cc1ccc(OC)cc1)c1ccc(S(C)(=O)=O)cc1 | < 200 nM | > 40000 nM

Continued, values first:

IC50 (COX II) | IC50 (COX I) | SMILES
< 200 nM | > 40000 nM | CCCCCN(Cc1ccc(F)cc1)c1ccc(S(C)(=O)=O)cc1
< 200 nM | > 40000 nM | CCCN(Cc1ccc(F)cc1)c1ccc(S(C)(=O)=O)cc1
< 200 nM | – | CCCCN(Cc1ccc(F)cc1)c1ccc(S(C)(=O)=O)cc1
< 200 nM | > 40000 nM | CS(=O)(=O)c1ccc(N(Cc2ccc(F)cc2)CC2CC2)cc1
